From PubChem BioAssay
miR-21 reporter: miR-21 reporter, rising signal; HeLa miR-21 FLuc reporter, luciferase, 48 h; Potency, µM (doses to about 38.3 µM); 340,000 tested, under 10 active; AID 2288; active = well fitted rising curve with a large enough effect; inconclusive = small, poorly fitted or top-dose-only effect; inactive = no such curve, though single readings can be large or run the other way;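 further: miR-21 action dims this reporter so a rising signal means less miR-21 action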
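Compounds were titrated across several concentrations (up to approximately 40 uM) and incubated 48 hours with HeLa miR-21-FLuc reporter cells (miR-21 target sequence downstream of FLuc, endogenous miR-21). Readout was firefly luciferase luminescence after lytic detection reagent.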
TrxR1 substrate: rat thioredoxin reductase 1 substrate activity. Potency, µM (series often up to 114 µM). O89049. 0.01% of 390,000 active. purified TrxR1 substrate turnover, NADPH consumption readout; also: nearly all actives have a fitted effect of over 50% in size
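Rat TrxR1, dispensed at 90 nM, was prereduced with 400 uM NADPH (final) for 5 min at ~22 deg C, then incubated with compound 15 min before 400 uM selenite. A first-read NADPH fluorescence drop versus no-compound background flagged substrates.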
ClpP mod: qHTS Assay for Activators of ClpP. ATP-dependent Clp protease proteolytic subunit (Bacillus subtilis (strain 168)), P80244. purified B. subtilis ClpP, FRET peptide cleavage, 20 min. Potency, µM (titrated, usually from 57.5 µM). 1.9% of 340,000 active; active = well fitted falling curve with a large enough effect; inconclusive = small, poorly fitted or top-dose-only effect; inactive = no such curve, though single readings can be large or run the other way; also: the source files actives as falling curves though it sought activators and does not explain the sign; nearly all actives have a fitted effect of over 65% in size
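FRET quenching reversal measured ClpP activation: 10 microg/mL B. subtilis ClpP at pH 8 with the FRET-FV decapeptide, read at 430 nm after 320 nm excitation. The 20-min minus 0-min signal was scaled between DMSO/no-enzyme wells and ADEP (5.8 microM final).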
rTrxR1 inhibitor: rat TrxR1 inhibition; O89049; Potency, µM (highest dose often 114 µM), usual class: inhibitors; recombinant rTrxR1, NADPH fluorescence consumption, selenite substrate; AID 588453; 1% of 390,000 active; also: nearly all actives have a fitted effect of over 65% in size
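Rat TrxR1 (90 nM in the dispensed reagent) was pre-reduced with 400 uM NADPH for 5 min at room temperature, then incubated with compound for 15 min. After 400 uM selenite was added, NADPH fluorescence (Ex 340/Em 450 nm) was followed for 8 min.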
Apoferritin bind: binds horse apoferritin like a general anesthetic. 0.074% of 350,000 active. apoferritin/1-aminoanthracene competitive binding, fluorescence. AID 485281. P02791. Potency, µM (titrated, usually from 77.5 µM), actives largely listed as inhibitors; also: nearly all actives have a fitted effect of over 20% in size
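Concentration-response curves derived by four-parameter Hill fitting of normalized fluorescence, where compounds displaced 1-AMA from 10 uM horse apoferritin following a brief 10 min room-temperature incubation; propofol titration acted as positive control.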
Numbers stand for hits; . = inactive; ? = inconclusive; / = no result given. Hits are enriched below; roughly 2.5% of the tested compounds scored in any of these assays. Unless noted, calls follow the shape of the dose curve; as a rule, active = well fitted curve in the direction sought with a large enough effect; inconclusive = small, poorly fitted or top-dose-only effect, or another doubt; inactive = no such curve, though single readings can be large; an effect the other way counts as inactive or inconclusive.

Chains of the proteins cited; added tags and fusions are not shown.
ATP-dependent Clp protease proteolytic subunit (Bacillus subtilis (strain 168)), P80244, UniProt P80244, whole entry, looked up: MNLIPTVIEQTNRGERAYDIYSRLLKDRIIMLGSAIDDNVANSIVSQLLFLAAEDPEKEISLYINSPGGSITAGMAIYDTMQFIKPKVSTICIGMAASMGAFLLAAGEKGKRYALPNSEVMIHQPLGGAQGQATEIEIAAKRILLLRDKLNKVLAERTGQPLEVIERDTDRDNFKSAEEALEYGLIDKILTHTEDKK

SMILES | miR-21 reporter | TrxR1 substrate | ClpP mod | rTrxR1 inhibitor | Apoferritin bind
CCCc1cc(=O)n2[nH]c(-c3ccc(C)cc3)cc2n1 | . | . | 14.1µM | . | .
CCCc1cc(=O)n2[nH]c(-c3ccc(Cl)cc3)cc2n1 | . | . | . | . | .
COCc1cc(=O)n2[nH]c(-c3ccccc3)cc2n1 | . | . | 25.1µM | . | .
COCc1cc(=O)n2[nH]c(C(C)(C)C)cc2n1 | . | . | / | . | .
CCCc1cc(=O)n2[nH]c(-c3ccccc3)cc2n1 | . | . | 22.4µM | . | .
COCc1cc(=O)n2[nH]c(C)cc2n1 | . | . | 17.8µM | . | .
O=C(NCc1ccccc1Cl)NCc1noc2ccccc12 | . | . | . | . | .
Cc1ccc(NC(=S)Nc2cccc3cnccc23)cc1C | . | . | / | . | ?
S=C(Nc1cccc(Cl)c1)Nc1cccc2cnccc12 | ? | . | . | 44.7µM | .
CC(=O)c1ccc(NC(=S)Nc2cccc3cnccc23)cc1 | ? | . | / | 22.4µM | .
COc1ccc(S(=O)(=O)c2cn(C)c3cc(N4CCCC4)c(F)cc3c2=O)cc1 | . | . | ? | . | .
O=C(Cn1ncc2c1-c1ccccc1OC2)N1CCN(c2ccccc2)CC1 | . | . | . | . | .
COC(=O)c1[nH]c2ccccc2c1NC(=O)Oc1ccccc1 | . | . | 28.2µM | . | .
COC(=O)c1[nH]c2cc(OC)c(OC)cc2c1NC(=O)Oc1ccccc1 | . | . | 31.6µM | . | .
CCOC(=O)c1[nH]c2cc(OC)c(OC)cc2c1NC(=O)C(C)N1CCN(Cc2ccccc2)CC1 (stereo not drawn) | . | . | 31.6µM | . | .
Cc1ccn2c(=O)cc(COc3cccc(NC(=O)Nc4cccc(Cl)c4C)c3)nc2c1 | . | . | . | . | .
Nc1nc2[nH]cc(CCc3ccc(C(=O)N[C@@H](CCC(=O)O)C(=O)O)cc3)c2c(=O)[nH]1 | / | . | . | . | /
Clc1nc(-c2ccccn2)nc2scc(-c3ccccc3)c12 | . | . | 28.2µM | . | .
CCCCOc1ccc(C2=NC(c3ccncc3)=Nc3ccc(Br)cc3N2)cc1 | . | . | . | . | ?
COCc1cc(C)nc(OCC(=O)N/N=C/c2ccco2)c1C#N | . | . | 14.1µM | . | .
COCc1cc(C)nc(OCC(=O)N/N=C/c2ccccc2)c1C#N | . | . | / | . | .
COc1ccc(CNC(=O)CSc2nnc(C)c3c(C)n(-c4ccccc4)nc23)c(OC)c1 | . | . | . | . | .
CNC(=O)c1cc2cc(OC)ccc2n1CCN(C)C | . | . | ? | . | .
CNC(=O)c1cc2cc(OC)ccc2n1CCN(Cc1ccccc1)Cc1ccccc1 | . | . | 22.4µM | . | .
CCOC(=O)c1ccc(NC(=O)C2CCN(S(=O)(=O)Cc3ccccc3)CC2)cc1 | . | . | . | . | .
SMILES | miR-21 reporter | TrxR1 substrate | ClpP mod | rTrxR1 inhibitor | Apoferritin bind
O=C(COc1ccccc1)Nc1ccc(-c2ccc(N3CCOCC3)nn2)cc1 | / | . | 15.8µM | . | /
Cc1ccc(N/N=C(\Cc2nc3ccccc3[nH]2)c2ccccc2)cc1 | . | . | . | 79.4µM | .
c1ccc(N/N=C(\Cc2nc3ccccc3[nH]2)c2ccccc2)cc1 | . | . | . | . | .
CCOC(=O)c1[nH]cnc1C(=O)Nc1cccc(N)n1 | . | . | 14.1µM | . | .
Cc1ccnc(SCC(=O)c2ccc([N+](=O)[O-])cc2)n1 | . | . | 15.8µM | . | .
CC(C)(C)c1nnc(NC(=O)NS(=O)(=O)c2ccccc2)s1 | . | . | 20µM | . | ?
CCCC(=O)OCCNc1cc(SCc2ccco2)c2nonc2c1[N+](=O)[O-] | . | . | . | 3.98µM | ?
CCCC(=O)OCCNc1cc(Sc2nccn2C)c2nonc2c1[N+](=O)[O-] | ? | . | . | 0.562µM | .
CCCSc1cc(NCCOC(=O)CCC)c([N+](=O)[O-])c2nonc12 | . | . | . | ? | .
CC(=O)OCCCNc1cc(SCc2ccco2)c2nonc2c1[N+](=O)[O-] | . | . | . | 2.51µM | .
Cc1ccc2nc3c(nc2c1C)CCCC3 | . | . | . | . | .
Cc1ccc2nc3c(nc2c1C)C(O)=C3O | . | . | / | 8.91µM | .
Cc1cc(C)c(Cn2c3ccccc3c3cnn(CC(=O)NCC(C)c4ccccc4)c(=O)c32)c(C)c1 (stereo not drawn) | . | . | ? | . | .
